One compound from ChEMBL document CHEMBL1147874, “Structure-activity based study of the Smac-binding pocket within the BIR3 domain of XIAP” (Bioorg Med Chem, 2007) can be followed below.

By UniProt entry, the sequences of proteins in these tests, tags left out.
UniProt P98170, whole entry: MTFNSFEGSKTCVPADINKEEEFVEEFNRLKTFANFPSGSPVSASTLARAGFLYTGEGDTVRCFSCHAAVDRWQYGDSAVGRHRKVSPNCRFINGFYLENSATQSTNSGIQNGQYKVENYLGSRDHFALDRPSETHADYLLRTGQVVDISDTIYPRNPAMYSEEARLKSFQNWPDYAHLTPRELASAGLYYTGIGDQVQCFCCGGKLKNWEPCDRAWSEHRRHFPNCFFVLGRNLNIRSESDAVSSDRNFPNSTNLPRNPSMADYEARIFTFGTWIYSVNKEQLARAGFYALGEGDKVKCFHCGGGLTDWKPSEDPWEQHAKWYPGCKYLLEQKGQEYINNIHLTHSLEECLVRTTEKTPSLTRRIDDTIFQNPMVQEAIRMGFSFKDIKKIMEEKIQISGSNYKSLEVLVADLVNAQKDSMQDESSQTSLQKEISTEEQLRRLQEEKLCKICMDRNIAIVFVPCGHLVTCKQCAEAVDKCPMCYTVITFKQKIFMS

Each structure is given as a SMILES string.

In the assay the target is E3 ubiquitin-protein ligase XIAP (Homo sapiens, UniProt P98170). In words: Binding affinity to BIR3 domain of XIAP by competitive fluorescent binding assay.

Compound `CC(C)[C@H](NC(=O)[C@H](C)N)C(=O)N1CCC[C@H]1C(=O)N[C@@H](Cc1ccccc1)C(=O)O` showed a Kd of 500 nM.
